{"source": "patent US11974982B2", "about": "“Stimulus-responsive antioxidant crystals and method for their preparation” (The Board of Trustees of the University of Illinois, priority 2020, dated 2024)", "experiment": "Release (dissolution) profile of catechin crystals through a dialysis membrane in PBS with or without H2O2", "type": "physicochemical", "settings": "for dissolution rate in media containing H2O2, in words: PBS containing 0.2 mM H2O2, FIG. 5b", "description": "Dissolution profiles of recrystallized catechin in phosphate-buffered saline are analyzed by measuring the amount of catechin dissolved and diffused from a dialysis membrane (FIG. 5a). Catechin crystals (25 mg) are placed in a dialysis tube (MWCO=500-1000 g/mol, Spectrum Labs) with PBS (1 mL). The dialysis tube is placed in the PBS media (499 mL) with different H2O2 concentrations (i.e., 0, 0.0001, 0.1, 0.2, 0.3, and 0.5 mM) and incubated at 37° C. under continuous shaking at 100 rpm. At designated times, dissolved catechin is collected and determined by reading the absorbance at 260 nm using a microplate spectrophotometer (Infinite 200 PRO, Tecan).", "data": [{"substance": "catechin [pure catechin crystals]", "values": [{"measurement": "dissolution rate in media containing H2O2, in words", "result": "decrease"}, {"measurement": "dissolution rate in media containing H2O2, in words", "setting": "listed as PEI-free catechin crystal", "result": "faster dissolution rate than catechin complexed with PEI or PEI-diselenide"}, {"measurement": "dissolution / release profile in PBS, in words", "setting": "PBS free of H2O2, 37° C., FIG. 5a", "result": "dissolve rapidly"}]}]}
